2 compounds from patent publication US20230391748A1, “BICYCLIC INHIBITORS OF IRAK” (priority 2022, published 2023) can be followed below.

By UniProt entry, the sequences of proteins in these tests, tags left out.
UniProt Q9NWZ3, whole entry: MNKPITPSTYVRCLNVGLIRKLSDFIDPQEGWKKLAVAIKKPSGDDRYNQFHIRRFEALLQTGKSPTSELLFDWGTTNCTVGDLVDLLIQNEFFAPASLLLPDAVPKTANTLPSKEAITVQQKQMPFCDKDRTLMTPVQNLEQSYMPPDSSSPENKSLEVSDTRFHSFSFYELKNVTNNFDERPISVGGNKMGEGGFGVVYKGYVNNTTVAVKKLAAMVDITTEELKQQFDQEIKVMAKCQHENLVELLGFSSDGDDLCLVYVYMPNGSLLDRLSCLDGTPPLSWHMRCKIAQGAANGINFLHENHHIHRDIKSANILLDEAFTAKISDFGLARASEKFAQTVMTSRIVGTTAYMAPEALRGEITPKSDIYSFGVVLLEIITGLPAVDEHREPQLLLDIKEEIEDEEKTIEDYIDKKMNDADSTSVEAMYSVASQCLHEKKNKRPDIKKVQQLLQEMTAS

The subject of one assay is IL23p19 in THP-1 Cells. The assay is described as follows: LPS Induced IL23p19 in THP-1 Cells (with IFNγ Primed) Assay. To be noted: read-out: IL23 (THP, LPS) (IC50); IFNγ-primed THP-1 cells, 1 μg/mL LPS, 18 hours, IL-23p19 ELISA. It is filed as cell-based, human. Background: ELISA stands for enzyme-linked immunosorbent assay.
For the next assay, the system named is TNF-α in human PBMCs. The assay is described as follows: R848-induced TNF-α in human PBMCs Assay. As to conditions: read-out: TNFα (PBMC, R848) (IC50), 65 ng/mL R848, 4 hours, TNF-α ELISA. The assay is classed as cell-based.
Assay [1] relates to TNF-α in Human Primary Monocyte-Derived Dendritic Cells. The assay is described as follows: Gardiquimod-Induced TNF-α in Human Primary Monocyte-Derived Dendritic Cells. The assay is classed as cell-based. To be noted: read-out: TNFα (DC, GARD) (IC50); IFNγ-primed monocyte-derived dendritic cells, 4 μg/ml Gardiquimod, 6 hours, TNF-α ELISA.
The next assay addresses IRAK4 (Homo sapiens (Human), UniProt Q9NWZ3). Briefly: IRAK4 ADP-Glo Assay. It is filed as biochemical. As to conditions: read-out: IRAK4 (IC50), MBP substrate.

Regarding `CC(C)Oc1cc2c(OC[C@@H]3CC(F)(F)C(=O)N3)ncc(C#C[C@H]3C[C@@H](N(C)C)C3)c2cc1C(N)=O`, the values for the IC50 (in the assay with IL23p19 in THP-1 Cells; in the assay with TNF-α in human PBMCs; in assay [1]) were 84.6 nM, 3.7 nM and 4.1 nM, respectively.

Take `CC(C)Oc1cc2c(OC[C@@H]3CCC(=O)N3)ncc(C#CC3(O)COC3)c2cc1C(N)=O`: the IC50 in the assay with IL23p19 in THP-1 Cells is 1820 nM; in the assay on TNF-α in human PBMCs it was 242 nM; in assay [1], 533 nM; at IRAK4 it was 5.3 nM.
